The chains behind the UniProt entries cited, without tags or fusion partners. Residues count along the entry.
UniProt H0WCX4, 1-619: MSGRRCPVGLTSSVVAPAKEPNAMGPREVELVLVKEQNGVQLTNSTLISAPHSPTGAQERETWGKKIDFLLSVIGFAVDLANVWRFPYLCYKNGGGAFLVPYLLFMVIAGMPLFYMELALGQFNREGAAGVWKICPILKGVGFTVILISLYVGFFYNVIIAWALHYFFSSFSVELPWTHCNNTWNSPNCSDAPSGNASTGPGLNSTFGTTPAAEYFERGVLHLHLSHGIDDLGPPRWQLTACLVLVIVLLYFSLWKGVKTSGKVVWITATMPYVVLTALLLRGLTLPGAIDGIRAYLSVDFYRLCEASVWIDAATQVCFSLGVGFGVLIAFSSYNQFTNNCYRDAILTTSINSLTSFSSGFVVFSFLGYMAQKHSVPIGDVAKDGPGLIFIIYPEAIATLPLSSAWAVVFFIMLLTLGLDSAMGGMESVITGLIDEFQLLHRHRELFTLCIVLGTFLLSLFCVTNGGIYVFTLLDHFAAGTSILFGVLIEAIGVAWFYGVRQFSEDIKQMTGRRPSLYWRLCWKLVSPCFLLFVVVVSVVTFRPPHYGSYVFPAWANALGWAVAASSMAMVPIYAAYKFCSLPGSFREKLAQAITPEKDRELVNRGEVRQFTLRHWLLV
UniProt P30543, whole entry: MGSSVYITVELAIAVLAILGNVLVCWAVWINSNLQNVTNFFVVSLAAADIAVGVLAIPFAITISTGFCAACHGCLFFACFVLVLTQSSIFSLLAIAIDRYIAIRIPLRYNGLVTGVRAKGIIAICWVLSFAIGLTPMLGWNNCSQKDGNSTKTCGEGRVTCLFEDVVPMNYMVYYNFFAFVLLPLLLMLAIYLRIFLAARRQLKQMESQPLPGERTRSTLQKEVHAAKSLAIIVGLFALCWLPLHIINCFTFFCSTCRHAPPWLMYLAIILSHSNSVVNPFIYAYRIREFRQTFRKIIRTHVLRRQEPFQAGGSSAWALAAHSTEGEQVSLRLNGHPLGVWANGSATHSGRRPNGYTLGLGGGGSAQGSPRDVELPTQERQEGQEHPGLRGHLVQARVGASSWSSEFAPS
UniProt P08588, whole entry: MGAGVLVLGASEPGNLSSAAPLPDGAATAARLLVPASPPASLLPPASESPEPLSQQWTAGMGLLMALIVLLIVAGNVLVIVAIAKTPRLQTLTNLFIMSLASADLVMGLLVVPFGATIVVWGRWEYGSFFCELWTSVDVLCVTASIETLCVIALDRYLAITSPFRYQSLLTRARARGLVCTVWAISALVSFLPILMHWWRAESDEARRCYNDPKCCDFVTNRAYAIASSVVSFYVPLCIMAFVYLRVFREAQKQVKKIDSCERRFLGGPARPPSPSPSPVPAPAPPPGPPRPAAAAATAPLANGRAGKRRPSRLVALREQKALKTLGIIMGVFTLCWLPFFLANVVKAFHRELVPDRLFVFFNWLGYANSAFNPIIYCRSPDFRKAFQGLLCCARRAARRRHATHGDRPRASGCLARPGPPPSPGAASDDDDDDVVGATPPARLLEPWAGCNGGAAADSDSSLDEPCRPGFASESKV
UniProt P30536, whole entry: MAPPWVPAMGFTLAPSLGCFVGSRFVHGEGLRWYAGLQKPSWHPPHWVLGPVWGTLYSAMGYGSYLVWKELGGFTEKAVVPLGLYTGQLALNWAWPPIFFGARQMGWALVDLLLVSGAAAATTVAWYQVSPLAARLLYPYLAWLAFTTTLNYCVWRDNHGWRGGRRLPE
UniProt Q9WTR4, 1-597: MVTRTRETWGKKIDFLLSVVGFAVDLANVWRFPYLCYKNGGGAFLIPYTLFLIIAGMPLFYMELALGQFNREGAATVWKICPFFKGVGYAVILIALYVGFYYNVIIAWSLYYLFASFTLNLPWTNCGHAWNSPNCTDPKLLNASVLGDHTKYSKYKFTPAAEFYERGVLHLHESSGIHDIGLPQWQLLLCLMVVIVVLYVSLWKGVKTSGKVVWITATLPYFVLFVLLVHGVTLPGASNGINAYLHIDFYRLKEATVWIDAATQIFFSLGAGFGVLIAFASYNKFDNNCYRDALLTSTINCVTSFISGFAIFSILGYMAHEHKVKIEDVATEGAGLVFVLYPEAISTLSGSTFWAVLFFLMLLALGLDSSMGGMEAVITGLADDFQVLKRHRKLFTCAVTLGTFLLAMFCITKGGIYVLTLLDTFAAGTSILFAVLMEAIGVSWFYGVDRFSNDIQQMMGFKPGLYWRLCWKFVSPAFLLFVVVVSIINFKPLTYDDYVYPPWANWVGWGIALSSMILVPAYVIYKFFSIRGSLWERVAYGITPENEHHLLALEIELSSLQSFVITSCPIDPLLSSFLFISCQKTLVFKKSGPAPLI
UniProt P31652, whole entry: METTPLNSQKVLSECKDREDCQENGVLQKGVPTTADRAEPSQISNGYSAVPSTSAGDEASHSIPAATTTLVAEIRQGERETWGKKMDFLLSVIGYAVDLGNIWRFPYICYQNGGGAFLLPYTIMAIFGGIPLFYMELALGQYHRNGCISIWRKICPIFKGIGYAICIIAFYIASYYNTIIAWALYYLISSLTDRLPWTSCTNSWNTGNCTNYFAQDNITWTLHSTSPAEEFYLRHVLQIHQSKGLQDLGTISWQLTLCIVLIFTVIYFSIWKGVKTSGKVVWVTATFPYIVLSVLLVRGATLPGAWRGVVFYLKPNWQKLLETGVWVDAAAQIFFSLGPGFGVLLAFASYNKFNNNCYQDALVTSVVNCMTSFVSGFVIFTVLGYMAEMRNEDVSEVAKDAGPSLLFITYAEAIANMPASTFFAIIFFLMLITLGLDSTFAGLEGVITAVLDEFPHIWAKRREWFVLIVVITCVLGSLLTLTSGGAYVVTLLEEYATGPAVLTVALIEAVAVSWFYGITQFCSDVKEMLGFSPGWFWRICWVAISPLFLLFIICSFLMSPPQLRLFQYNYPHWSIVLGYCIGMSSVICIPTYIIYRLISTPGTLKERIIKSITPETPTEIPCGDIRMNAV

According to patent publication US20020187514A1 (priority 1999, published 2002):

Experiments:
[1] = molecular target: Dopamine Transporter (Cavia porcellus, UniProt H0WCX4); test: biochemical; format: binding, Guinea Pig
[2] = molecular target: Adenosine, A2 (UniProt P30543); test: Adenosine, A2; [3H]CGS21680; format: binding; details: read-out: Ref Kj
[3] = molecular target: T1, Adrenergic, Beta 1 (Homo sapiens, UniProt P08588); test: Adrenergic, Beta 1 (Human Recombinant); [125I]Iodocyanopindolol; format: binding
T1 construct: expressed in transfected cells

[4] = molecular target: Benzodiazepine, peripheral (Homo sapiens, UniProt P30536); test: biochemical; format: binding
[5] = molecular target: Norepinephrine Transporter (Rattus norvegicus, UniProt Q9WTR4); test: biochemical; format: binding
[6] = molecular target: Serotonin Transporter (Rattus norvegicus, UniProt P31652); test: biochemical; format: binding

## Fc1ccc(C(OCCN2CCN(CCCc3ccccc3)CC2)c2ccc(F)cc2)cc1
[1]
  Ki: 13.2 nM

## Nc1nc(Cl)nc2c1ncn2[C@@H]1O[C@H](CO)[C@@H](O)[C@H]1O [2-Chloroadenosine (2-CADO), 2-Chloroadenosine]
[2]
  Ki: 26.8 nM

## C=CCc1ccccc1OCC(O)CNC(C)C (stereo not shown) [Alprenolol]
[3]
  Ki: 1.04 nM

## CCC(C)N(C)C(=O)c1cc2ccccc2c(-c2ccccc2Cl)n1 (stereo not shown) [PK 11195]
[4]
  Ki: 1.84 nM

## CNCCC(Oc1ccccc1OC)c1ccccc1 (stereo not shown) [[^3H]-Nisoxetine]
[5]
  Kd: 0.9 nM

## COC(=O)[C@H]1[C@@H](OC(=O)c2ccccc2)C[C@@H]2CC[C@H]1N2C [cocaine]
[6]
  Ki: 352 nM
[5]
  Ki: 1000 nM
